Experimental data reported in paper PMC8009258, “The genotype‐phenotype landscape of an allosteric protein” (Molecular Systems Biology, 2021).

Amino acid sequences for entries named in this document (tags omitted).
UniProt P03023, whole entry G265D: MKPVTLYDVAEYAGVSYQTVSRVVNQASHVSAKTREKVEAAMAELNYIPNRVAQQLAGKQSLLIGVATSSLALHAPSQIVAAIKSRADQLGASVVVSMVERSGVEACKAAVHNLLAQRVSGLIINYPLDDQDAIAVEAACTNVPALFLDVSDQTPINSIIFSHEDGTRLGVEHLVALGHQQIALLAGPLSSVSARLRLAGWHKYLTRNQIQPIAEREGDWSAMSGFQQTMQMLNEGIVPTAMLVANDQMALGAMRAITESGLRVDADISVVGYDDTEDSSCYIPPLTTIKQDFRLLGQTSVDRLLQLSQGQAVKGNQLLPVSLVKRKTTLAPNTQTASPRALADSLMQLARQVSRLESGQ
UniProt P03023, whole entry R195H/G265D/A337D: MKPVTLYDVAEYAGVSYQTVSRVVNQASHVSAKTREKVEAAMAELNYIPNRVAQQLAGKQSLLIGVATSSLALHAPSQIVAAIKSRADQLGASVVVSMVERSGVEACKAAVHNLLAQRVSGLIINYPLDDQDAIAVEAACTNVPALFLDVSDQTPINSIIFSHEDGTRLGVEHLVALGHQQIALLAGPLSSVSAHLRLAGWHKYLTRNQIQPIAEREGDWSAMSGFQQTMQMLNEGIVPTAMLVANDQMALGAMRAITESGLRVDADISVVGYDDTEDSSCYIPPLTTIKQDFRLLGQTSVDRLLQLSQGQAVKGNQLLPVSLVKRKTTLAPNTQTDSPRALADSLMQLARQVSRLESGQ
UniProt P03023, whole entry: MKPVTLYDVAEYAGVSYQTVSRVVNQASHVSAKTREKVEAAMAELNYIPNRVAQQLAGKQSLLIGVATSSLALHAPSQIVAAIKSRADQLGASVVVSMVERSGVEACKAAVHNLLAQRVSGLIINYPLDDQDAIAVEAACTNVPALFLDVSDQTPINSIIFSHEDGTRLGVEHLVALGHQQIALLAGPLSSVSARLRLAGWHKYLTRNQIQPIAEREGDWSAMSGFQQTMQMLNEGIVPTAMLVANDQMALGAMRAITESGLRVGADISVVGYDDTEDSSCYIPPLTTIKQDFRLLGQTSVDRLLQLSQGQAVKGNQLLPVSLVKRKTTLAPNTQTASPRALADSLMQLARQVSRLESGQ
UniProt P03023, whole entry R195H/G265D: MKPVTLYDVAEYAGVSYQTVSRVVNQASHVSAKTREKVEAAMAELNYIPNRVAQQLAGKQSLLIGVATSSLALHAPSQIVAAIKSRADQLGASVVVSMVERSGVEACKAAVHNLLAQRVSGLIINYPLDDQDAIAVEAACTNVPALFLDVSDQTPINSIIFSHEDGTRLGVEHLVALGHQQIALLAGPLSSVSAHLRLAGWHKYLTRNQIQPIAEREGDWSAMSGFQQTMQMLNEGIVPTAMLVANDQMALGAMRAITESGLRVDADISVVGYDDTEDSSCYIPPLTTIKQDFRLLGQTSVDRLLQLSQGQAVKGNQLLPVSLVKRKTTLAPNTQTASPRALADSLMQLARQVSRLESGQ
UniProt P03023, whole entry R195H: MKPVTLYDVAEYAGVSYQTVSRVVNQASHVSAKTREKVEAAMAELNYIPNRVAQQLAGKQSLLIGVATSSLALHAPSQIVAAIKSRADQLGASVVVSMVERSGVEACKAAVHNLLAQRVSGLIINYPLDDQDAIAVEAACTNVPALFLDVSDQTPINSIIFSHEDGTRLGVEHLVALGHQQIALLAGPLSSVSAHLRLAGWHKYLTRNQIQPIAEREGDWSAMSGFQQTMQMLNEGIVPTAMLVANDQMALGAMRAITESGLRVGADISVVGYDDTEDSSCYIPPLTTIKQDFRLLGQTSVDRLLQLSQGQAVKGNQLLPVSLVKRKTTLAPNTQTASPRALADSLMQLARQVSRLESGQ

Legend:
[1] = molecular target: lac repressor (LacI) (Escherichia coli, UniProt P03023, G265D)
[2] = molecular target: lac repressor (LacI) (Escherichia coli, UniProt P03023, R195H/G265D/A337D)
[3] = molecular target: lac repressor (LacI) (Escherichia coli, UniProt P03023)
[4] = molecular target: lac repressor (LacI) (Escherichia coli, UniProt P03023, R195H/G265D)
[5] = molecular target: lac repressor (LacI) (Escherichia coli, UniProt P03023, R195H)

Which EC50 [1] does the source give for `CC(C)S[C@@H]1O[C@H](CO)[C@H](O)[C@H](O)[C@H]1O` [IPTG] here?
The EC50 was “The single‐substitution R195H (orange) or G265D (green) results in sigmoidal dose‐response curves similar to wild‐type LacI”.

What about the “IPTG dose-response (band-stop) of LacI-regulated YFP by flow cytometry in E. col” value [2] of the same compound?
The value was “a strong band‐stop variant identified from the library with only three amino acid substitutions (R195H/G265D/A337D; blue diamonds)”.

And the EC50 [3]?
The EC50 was “Dose‐response curves measured with flow cytometry for selected LacI variants: wild‐type LacI (gray “X”s)”.

What about the “IPTG dose-response (band-stop) of LacI-regulated YFP by flow cytometry in E. col” value [4] of the same compound?
The value was “the combination of two substitutions (R195H/G265D) gave rise to the band‐stop phenotype”.

And the EC50 [5]?
Its EC50 is “The single‐substitution R195H (orange) or G265D (green) results in sigmoidal dose‐response curves similar to wild‐type LacI”.
